Data from publication PMC7246325 (Drug Design, Development and Therapy, 2020).
Like-named read-outs stand apart in the source and are kept apart here.

[1] = 3 mg warfarin oral + 750 mg apatinib daily, N=20, GMean (CV%)
[2] = 3 mg warfarin oral, alone, N=23, GMean (CV%)

For `CC(=O)C[C@@H](c1ccccc1)c1c(O)c2ccccc2oc1=O` [S-Warfarin, S-warfarin], the AUC0-t [1] was 7980 (25.8) h×ng/mL, the Cmax [1] was 234 (19.2) ng/mL and the AUC0-t [2] was 4210 (25.5) h×ng/mL. The Cmax [2] was 194 (21.2) ng/mL.
